# The entries are a selection whose mix differs from that of the whole data set. The source made the active and inactive calls.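 How the source made its calls: active means inhibition above a set limit, near 3 SD of compounds lacking own fluorescence (cut at about 54% in these data); inactive means the rest.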
# Tested on: beta-arrestin 1 C-terminal peptide binding to AP2 beta2-adaptin appendage (human)
# Experiment: blockers of arrestin peptide association with AP2 adaptin – biochemical, GPCR trafficking, flow cytometry, primary screen (AID 504490);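 further: plate controls were DMSO wells for no effect and 5 µM unlabelled arrestin peptide for full effect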
# Details: FITC-arrestin peptide / GST-AP2 beads, at 10 µM, hits give high values, AP2 beta2 appendage carries R879A mutation
row,SMILES,inhibition
1,Cc1ccc(OP(=O)(Nc2ccccn2)Oc2ccc(C)cc2)cc1,inactive: -19.1%

# From PubChem BioAssay AID504490 (NMMLSC, 2011)
